The values below are quoted from earlier work in patent publication US20220072149A1, “BIOLOGICALLY ACTIVE CLUSTER OF MOLECULES” (priority 2018, published 2022).

The conditions of this series: in monkeys; cited from earlier work.

Take “ado-trastuzumab emtansine: conjugate of DM1 (emtansine) and trastuzumab”: the “enhancement of the tolerable dose of DM1 by conjugation to trastuzumab” value is reported as “at least two-fold”.
